Tested on: Mycobacterium tuberculosis H37Rv growth inhibition, no glycerol
Test: Confirmatory growth inhibition assay, Mycobacterium tuberculosis H37Rv, absence of glycerol (AID 504901)

**Q.** Which results are given for `c1ccc(/N=C2\N=C(Nc3ccccn3)c3ccccc32)nc1`?
**A.** IC90: 2790 nM; IC50 (measured here: IC50 of growth inhibition): 2120 nM
